Values of other authors, collected in patent EP0716679B1, “METHOD OF CLEANING VINYL SURFACES BY MEANS OF MILDLY ACIDIC HARD SURFACE CLEANING COMPOSITIONS CONTAINING AMINE OXIDE DETERGENT SURFACTANTS” (THE PROCTER & GAMBLE COMPANY, priority 1993, dated 1995).

Conditions: second pKa

O=C(O)CCC(=O)O [Succinic acid]
pKa of acidifying agent: 5.57
